Target: human tace resistant transmembrane TNF (hTNF delta 1-12; SEQ ID NO:1 lacking amino acids 77-88) on K562 GRE reporter cells (human) (UniProt P01375)
Assay: cell-based or functional assay

hTNFa GRE EC50: 0.03 µg/mL | hTNFa GRE (% max) (scale: % max): 126
Substance: ADC5 (anti-human TNFa antibody drug conjugate; adalimumab conjugated with a glucocorticosteroid drug linker, DAR 2)
